Earlier results, collected in patent publication US8415152B2, “Therapeutical composition containing dentritic cells and use thereof” (Helmholtz-Zentrum für Infektionsforschung GmbH, priority 2003, dated 2013).

Conditions: Deiters et al. 2003; cited from earlier work

In the case of “macrophage activating lipopeptide-2 [MALP-2, reference compound]”, the “Pyrogenicity” value is given as “less pyrogenic then LPS”.
